Measurements taken from PubChem BioAssay AID1013 (Columbia University Molecular Screening Center, 2008).
The entries are a selection whose mix differs from that of the whole data set. Calls of active or inactive are those of the source. The rule behind the calls is not given here.

Assay: inhibitors of TNFa-induced VCAM1 expression, confirmation, imaging, TNFa stimulus, retest and dose response (AID 1013)
Settings: TNFa-stimulated cells, at 2 µM, hits give high values

O=P(Nc1nccs1)(c1ccccc1)c1ccccc1
inhibition: inactive: 11.2%
